Test results published in patent publication US6699662.

Molecular target: T1, SarA (staphylococcal accessory regulator A), strain DB (Staphylococcus aureus) (UniProt Q2G2U9)
T1 sequence: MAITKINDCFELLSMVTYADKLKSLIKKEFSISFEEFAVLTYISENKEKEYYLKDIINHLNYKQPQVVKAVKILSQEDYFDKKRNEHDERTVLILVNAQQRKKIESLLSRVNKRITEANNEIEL
Assay: EMSA
Conditions: same buffer; 1 dimer per DNA; dG dissociation 13.0 kcal/mol; text gives 200 pM

| Substance | Kd |
| --- | --- |
| P2 oligo (45 bp) | 0.22 nM |
| P3 oligo (45 bp) | 0.22 nM |
